{
  "source": "paper PMC3414448",
  "about": "(PLoS ONE, 2012)",
  "key": {"CHO-K1 cells": {"tested_on": "CHO-K1 cells", "conditions": "CHO-K1, 100 µM, 20 hr treatment"}},
  "note": "Read-outs that look alike come from different tables or passages of the source.",
  "data": [
    {"smiles": "CO[C@@]12[C@H](COC(N)=O)C3=C(C(=O)C(C)=C(N)C3=O)N1C[C@@H]1N[C@@H]12", "note": "[MMC, mitomycin C]", "values": [
      {"measurement": "% Binucleated", "setting": "A549 cells; A549, 1 µM, 20 hr treatment", "value": 58.78, "unit": "%"},
      {"measurement": "% Binucleated", "setting": "A549 cells; A549, 100 µM, 20 hr treatment", "value": 46.78, "unit": "%"},
      {"measurement": "kinetochore-negative MN (CENP-B staining)", "setting": "A549 cells; A549, data not shown", "value": "increases in kinetochore-negative MN"},
      {"measurement": "% Binucleated", "setting": "A549 cells; human", "value": 57.00, "unit": "%"},
      {"measurement": "% Binucleated", "setting": "CHO-K1 cells", "value": 62.33, "unit": "%"}
    ]}
  ]
}
